Data taken from ChEMBL document CHEMBL1142182, “Novel Ambler class A beta-lactamase LAP-1 and its association with the plasmid-mediated quinolone resistance determinant QnrS1” (Antimicrob Agents Chemother, 2007).

Columns and labels:
Enterobacter cloacae [1] = system: Enterobacter cloacae
Enterobacter cloacae [2] = system: Enterobacter cloacae; remark: listed apart in the source

`CC1(C)S[C@@H]2[C@H](NC(=O)[C@H](C(=O)O)c3ccsc3)C(=O)N2[C@H]1C(=O)O` [TICARCILLIN] was tested, and the Km (Enterobacter cloacae [1]) was 40 µM and the kcat/Km (Enterobacter cloacae [2]) was 750000 M⁻¹ s⁻¹.
